Reference: patent US20100112602A1, “Protein-Protein Interaction Biosensors and Methods of Use Thereof” (priority 2006, published 2010)
“Also recorded” adds a separate entry of the source.

Amino acid sequences for entries named in this document (tags omitted). Chains listed by the source or under a name are the forms on record and can include a tag or linker.
UniProt Q00987, with tags, fused parts or gaps: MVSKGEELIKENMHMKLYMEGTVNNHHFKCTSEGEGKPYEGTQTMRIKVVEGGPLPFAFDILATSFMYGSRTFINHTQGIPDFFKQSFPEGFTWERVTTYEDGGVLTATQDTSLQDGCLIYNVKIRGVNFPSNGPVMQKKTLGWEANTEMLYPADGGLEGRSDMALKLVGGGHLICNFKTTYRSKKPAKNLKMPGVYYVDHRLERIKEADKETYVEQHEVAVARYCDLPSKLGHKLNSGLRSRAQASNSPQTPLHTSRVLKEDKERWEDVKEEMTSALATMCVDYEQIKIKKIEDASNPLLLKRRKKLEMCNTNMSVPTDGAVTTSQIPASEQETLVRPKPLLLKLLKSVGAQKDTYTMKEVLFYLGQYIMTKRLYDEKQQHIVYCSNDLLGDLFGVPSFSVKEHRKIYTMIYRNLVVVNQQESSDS

Target: T1, p53:HDM2 interaction (Homo sapiens, UniProt Q00987)
T1 construct: expressed in transfected cells; host or cells: U2OS (human tumor cells), transient double transfection by Amaxa nucleofection
Assay: p53:HDM2 protein-protein interaction biosensor high content screening assay in U2OS cells
Format: cell-based

## COc1ccc(C2=N[C@@H](c3ccc(Cl)cc3)[C@@H](c3ccc(Cl)cc3)N2C(=O)N2CCNC(=O)C2)c(OC(C)C)c1 [nutlin-3]
U2OS cells expressing two-component p53:HDM2 biosensor, nucleoli to cytoplasm, within minutes after treatment
  intracellular redistribution of the biosensor upon treatment (disruption of p53:HDM2 interaction): redistributed predominately into the cytoplasm; also recorded: re-partitioned into the cytoplasm; also recorded: re-partitions predominately to the cytoplasm
Washout experiments
  reversibility of drug-induced translocation of the biosensor: reversible
